What was measured:
[1] = biological target: recombinant CSN^ΔCSNAP complex, Q13098;Q9UNS2;Q92905;Q99627; assay: peptide array; conditions: mean of six arrays; read off a plot
[2] = biological target: recombinant COP9 signalosome complex (CSN), Q13098;Q9UNS2;Q92905;Q99627;Q8WXC6; assay: peptide array; conditions: mean of six arrays; read off a plot

Row | Substance | ratio to parent (fold of C-CSNAP) [1] | ratio to parent (fold of C-CSNAP) [2]
1 | 16AA C-CSNAP peptide on the peptide array (spot A1) F43(D-Phe) | 0.88 | 
2 | 16AA C-CSNAP peptide on the peptide array (spot A1) F44(D-Phe) | 0.84 | 
3 | 16AA C-CSNAP peptide on the peptide array (spot A1) D55E |  | 1
4 | 16AA C-CSNAP peptide on the peptide array (spot A1) F44W | 1.3 | 0.81
5 | 16AA C-CSNAP peptide on the peptide array (spot A1) Aib at positions 45,50,56 | 0.82 | 0.47
6 | 16AA C-CSNAP peptide on the peptide array (spot A1) D46E | 1 | 1
7 | 16AA C-CSNAP peptide on the peptide array (spot A1) F43W; F44W | 1.3 | 0.73
8 | 16AA C-CSNAP peptide on the peptide array (spot A1) F43A |  | 0.84
9 | 16AA C-CSNAP peptide on the peptide array (spot A1) D52E |  | 0.97
10 | 16AA C-CSNAP peptide on the peptide array (spot A1) Aib at positions 42,48,54 |  | 0.47
11 | 16AA C-CSNAP peptide on the peptide array (spot A1) N45A |  | 1.3
12 | 16AA C-CSNAP peptide on the peptide array (spot A1) D54(D-Asp) | 1.3 | 
13 | 16AA C-CSNAP peptide on the peptide array (spot A1) D46(D-Asp) |  | 0.97
14 | 16AA C-CSNAP peptide on the peptide array (spot A1) I56(D-Ile) | 1.5 | 1
15 | 16AA C-CSNAP peptide on the peptide array (spot A1) D49(D-Asp) | 1 | 
16 | 16AA C-CSNAP peptide on the peptide array (spot A1) D53A |  | 0.89
17 | 16AA C-CSNAP peptide on the peptide array (spot A1) D54A |  | 0.95
18 | 16AA C-CSNAP peptide on the peptide array (spot A1) D52A | 0.96 | 1

Row | Substance | ratio to parent (fold of C-CSNAP) [1] | ratio to parent (fold of C-CSNAP) [2]
19 | 16AA C-CSNAP peptide on the peptide array (spot A1) Q57(D-Gln) | 1.5 | 1
20 | 16AA C-CSNAP peptide on the peptide array (spot A1) D52(D-Asp) | 0.93 | 
21 | 16AA C-CSNAP peptide on the peptide array (spot A1) F43W; F47W | 1.5 | 0.79
22 | 16AA C-CSNAP peptide on the peptide array (spot A1) F51W | 1 | 0.81
23 | 16AA C-CSNAP peptide on the peptide array (spot A1) E48A | 1 | 
24 | 16AA C-CSNAP peptide on the peptide array (spot A1) D55A |  | 1
25 | 16AA C-CSNAP peptide on the peptide array (spot A1) D49A | 0.84 | 
26 | 16AA C-CSNAP peptide on the peptide array (spot A1) F51(D-Phe) | 0.95 | 
27 | 16AA C-CSNAP peptide on the peptide array (spot A1) D53E |  | 0.93
28 | 16AA C-CSNAP peptide on the peptide array (spot A1) F47W |  | 0.94
29 | 16AA C-CSNAP peptide on the peptide array (spot A1) F43W | 1.3 | 0.77
30 | 16AA C-CSNAP peptide on the peptide array (spot A1) F47(D-Phe) | 1 | 0.45
31 | 16AA C-CSNAP peptide on the peptide array (spot A1) Aib at positions 46,52,57 | 0.7 | 0.32
32 | 16AA C-CSNAP peptide on the peptide array (spot A1) D54E |  | 0.97
33 | 16AA C-CSNAP peptide on the peptide array (spot A1) D49E | 0.93 | 0.79
34 | 16AA C-CSNAP peptide on the peptide array (spot A1) N45(D-Asn) | 0.84 | 0.97
35 | 16AA C-CSNAP peptide on the peptide array (spot A1) E48(D-Glu) |  | 0.24

Reference: publication PMC10355216, “The C-terminal tail of CSNAP attenuates the CSN complex” (Life Science Alliance, 2023)
